Assay [1] relates to breast cancer T2-4, N 0-1, M0. Briefly: Early response studies: RNA Disruption (RDI) 15 days after initiation of therapy. The format is in vivo, human. The text has this: The Limit of Detection for RDI s RDI=0.3. RDI=1.5, 5 times the Level of Detection, was used as a provisional baseline cut off between nonresponders and responders.
In assay [2] the test system is tumour biopsy samples. Briefly: Maximal RDI of tumour biopsies before and after the first cycle of neo-adjuvant therapy. Particulars: maximal RDI per tumour sample. The class given is in vivo, human. On the procedure:
Biopsy samples before and after a treatment dose were obtained from patients undergoing neo-adjuvant therapy with Trastuzumab. RNA was isolated and analyzed using the Agilent Bioanalyzer. Electropherograms were analyzed using the methods 100 and 400 and the maximal RDI score was graphed for each tumour sample at each time-point.
Biopsy samples were obtained from patients undergoing neo-adjuvant therapy with Zometa. RNA was isolated and analyzed using the Agilent Bioanalyzer. Electropherograms were analyzed using the methods 100 and 400 and the maximal RDI score was graphed for each tumour sample at each time-point.

With “Trastuzumab: monoclonal antibody that targets HER2/neu receptor”, in assay [1], the “RDI Range, Responding Patients” value was 1.6-2.3. Also, the “RDI values after the first cycle” value in assay [2] is recorded as “increased in some patients”.
